# Assays:
# By UniProt entry, the sequences of proteins in these tests, tags left out.
# UniProt P21554, whole entry: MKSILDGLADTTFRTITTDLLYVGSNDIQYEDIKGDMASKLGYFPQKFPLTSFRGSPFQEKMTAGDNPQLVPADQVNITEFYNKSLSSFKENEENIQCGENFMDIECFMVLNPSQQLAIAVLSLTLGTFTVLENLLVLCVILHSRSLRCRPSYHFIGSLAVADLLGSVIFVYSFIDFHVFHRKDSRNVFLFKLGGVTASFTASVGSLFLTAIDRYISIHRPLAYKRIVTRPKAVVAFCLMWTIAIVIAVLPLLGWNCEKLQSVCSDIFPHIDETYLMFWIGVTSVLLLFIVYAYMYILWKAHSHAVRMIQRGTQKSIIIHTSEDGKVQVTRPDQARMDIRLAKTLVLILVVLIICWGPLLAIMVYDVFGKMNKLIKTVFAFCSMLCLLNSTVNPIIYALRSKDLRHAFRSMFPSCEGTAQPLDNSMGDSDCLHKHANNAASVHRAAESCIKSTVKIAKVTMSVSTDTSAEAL
# UniProt P34972, whole entry: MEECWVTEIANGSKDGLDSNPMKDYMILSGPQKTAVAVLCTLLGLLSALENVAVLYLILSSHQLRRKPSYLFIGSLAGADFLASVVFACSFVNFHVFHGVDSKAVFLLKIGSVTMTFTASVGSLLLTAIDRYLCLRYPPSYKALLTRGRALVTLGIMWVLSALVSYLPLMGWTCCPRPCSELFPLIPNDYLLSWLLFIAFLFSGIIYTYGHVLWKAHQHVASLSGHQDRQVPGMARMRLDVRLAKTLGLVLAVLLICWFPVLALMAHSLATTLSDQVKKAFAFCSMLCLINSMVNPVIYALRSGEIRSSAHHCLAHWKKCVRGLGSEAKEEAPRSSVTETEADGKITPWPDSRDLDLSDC
# Cannabinoid receptor 1 = Cannabinoid receptor 1 (Homo sapiens, UniProt P21554); type: cell-based, HEK293
# Cannabinoid receptor 2 = Cannabinoid receptor 2 (Homo sapiens, UniProt P34972); experiment: Displacement of [3H]CP-55940 from human CB2 receptor expressed in HEK293 cells; type: cell-based
# Homo sapiens = organism: Homo sapiens; experiment: Selectivity for human CB2 receptor over human CB1 receptor
compound,measurement,setting,value
CCCCCn1cc(C(=O)NC23CC4CC(CC(C4)C2)C3)c(=O)c2cc(C(C)C)ccc21,Ki,Cannabinoid receptor 1,1220 nM
same,Ki,Cannabinoid receptor 2,6.3 nM
same,Ratio Ki,Homo sapiens,194

# Source: ChEMBL document CHEMBL1156630, “Investigations on the 4-quinolone-3-carboxylic acid motif. 2. Synthesis and structure-activity relationship of potent and selective cannabinoid-2 receptor agonists endowed with analgesic activity in vivo” (J Med Chem, 2008)
